# Experimental data published in BindingDB's records for PubMed 9396785 (Merck Sharp and Dohme Research Laboratories, 1997).
# Where “and” joins values, the source holds several entries; their conditions need not be identical. Equal values may be shown once.
# Biological target: T1, Gamma-aminobutyric acid receptor subunit alpha-1 (Homo sapiens, UniProt P14867)
# T1 sequence (P14867 whole entry): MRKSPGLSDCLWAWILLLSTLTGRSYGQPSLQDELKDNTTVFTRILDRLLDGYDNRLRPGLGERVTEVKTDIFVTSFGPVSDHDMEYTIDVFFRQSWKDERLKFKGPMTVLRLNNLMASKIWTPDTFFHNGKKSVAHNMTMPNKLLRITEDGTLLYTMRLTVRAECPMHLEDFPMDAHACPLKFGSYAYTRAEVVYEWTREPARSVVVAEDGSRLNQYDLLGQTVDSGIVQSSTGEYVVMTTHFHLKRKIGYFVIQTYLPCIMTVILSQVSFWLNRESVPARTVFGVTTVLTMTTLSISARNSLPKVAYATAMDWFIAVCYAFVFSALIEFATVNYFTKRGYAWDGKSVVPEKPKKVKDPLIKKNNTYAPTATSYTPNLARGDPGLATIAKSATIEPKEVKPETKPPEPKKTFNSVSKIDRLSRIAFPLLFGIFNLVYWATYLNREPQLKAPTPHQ
smiles,measurement,value
"CN1CCc2cc3c(cc2[C@H]1[C@@H]1OC(=O)c2c1ccc1c2OCO1)OCO3 [(R)-6-((S)-6-methyl-5,6,7,8-tetrahydro-[1,3]dioxolo[4,5-g]isoquinolin-5-yl)isobenzofuro[5,4-d][1,3]dioxol-8(6H)-one]",Ki,> 10 µM and 4.57 µM
